From patent US11485744B2, “High penetration prodrug compositions of antimicrobials and antimicrobial-related compounds” (priority 2009, dated 2022)

Conditions: mouse, in vivo
Protocol: In vivo rates of penetration of HPPs of beta-lactam antibiotics through skin and blood-brain barrier of intact hairless mice were studied. […] After 2 hours, the mice were killed. 5 ml of methanol was added to 1 g of homogenized blood, liver, kidney, muscle, or brain. The samples were centrifuged for 5 min and analyzed by HPLC (Table 2).

Question: For `CCN(CC)CCOC(=O)C1N2C(=O)C(NC(=O)c3c(OC)cccc3OC)C2SC1(C)C.Cl` (stereo not shown) [methicillin-DEE, 6-(2,6-dimethoxybenzamido)penicillinic acid 2-diethylaminoethyl ester hydrochloride], which “Amount of parent drug found in Blood” value is on record?
Answer: 27 ± 6 µg/g

Question: And the “Amount of parent drug found in Kidney” value?
Answer: 15 ± 5 µg/g

Question: What about the “Amount of parent drug found in Liver” value of the same compound?
Answer: 15 ± 5 µg/g

Question: What about the “Amount of parent drug found in Muscel” value of the same compound?
Answer: 20 ± 5 µg/g
